Experimental data as given in patent publication US9399647B2, “Proteasome activity modulating compounds” (Proteostasis Therapeutics, Inc., priority 2012, dated 2016).

Sequences of proteins named here, by UniProt entry; tags and fusion partners are left off. A change or cut given only in a name is not applied to a line headed by its entry.
UniProt P54578: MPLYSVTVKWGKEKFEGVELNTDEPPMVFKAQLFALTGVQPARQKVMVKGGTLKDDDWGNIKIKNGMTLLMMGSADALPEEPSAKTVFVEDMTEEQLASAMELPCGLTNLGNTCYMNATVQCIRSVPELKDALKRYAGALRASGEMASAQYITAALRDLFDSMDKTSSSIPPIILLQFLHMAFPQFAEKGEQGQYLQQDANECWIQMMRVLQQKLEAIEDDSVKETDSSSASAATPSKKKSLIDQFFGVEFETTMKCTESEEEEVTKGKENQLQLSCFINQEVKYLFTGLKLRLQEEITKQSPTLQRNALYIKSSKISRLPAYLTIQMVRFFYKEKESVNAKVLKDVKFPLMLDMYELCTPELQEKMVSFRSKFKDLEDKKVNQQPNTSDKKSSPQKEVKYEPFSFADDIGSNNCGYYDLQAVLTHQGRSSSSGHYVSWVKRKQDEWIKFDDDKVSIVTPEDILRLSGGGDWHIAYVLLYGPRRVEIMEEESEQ

Target: USP14 (Homo sapiens, UniProt P54578)
Assay: USP14 inhibition assay
Assay type: biochemical
Excerpt: The IC50 values in the Table below represent the average value from three experimental determinations.
These IC50 values represent the average value from three experimental determinations.

Structure (SMILES): Cc1cc(C(=O)CN2CCCC2)c(C)n1-c1ccc(F)cc1 [IU1, 1-(1-(4-fluorophenyl)-2,5-dimethyl-1H-pyrrol-3-yl)-2-(pyrrolidin-1-yl)ethanone, reference compound]
- IC50: 1200 nM
